In PubChem BioAssay (NCI) one finds growth inhibition data, which are given here for 31 molecules.

The list shows a part of the results, in another mix than the full data. Calls of active or inactive are those of the source. Rule as the data show it: active = growth inhibition above about 70%; inactive = the rest.

Test [1] in a line: NCI Yeast Anticancer Drug Screen. Data for the rad50 strain (AID 155).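 Also: 0% = growth of vehicle-only cultures of the same strain.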 As to conditions: S. cerevisiae rad50 strain growth inhibition; at 50.0 µM; hits give high values.
A short description of test [2]: NCI Yeast Anticancer Drug Screen. Data for the mec2-1 strain (AID 157). As to conditions: S. cerevisiae mec2-1 strain, at 50.0 µM, hits give high values.
Test [3] in a line: NCI Yeast Anticancer Drug Screen. Data for the sgs1 mgt1 strain (AID 161).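 Also: 0% = growth of cultures given vehicle only.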 As to conditions: S. cerevisiae sgs1 mgt1 strain, at 50.0 µM, hits give high values.
A short description of test [4]: NCI Yeast Anticancer Drug Screen. Data for the cln2 rad14 strain (AID 165).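 Also: 0% = growth equal to vehicle treated cultures.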 Particulars: S. cerevisiae cln2 rad14 strain, at 50.0 µM, hits give high values.
The nature of test [5]: NCI Yeast Anticancer Drug Screen. Data for the bub3 strain (AID 167). As to conditions: S. cerevisiae bub3 mutant strain, at 50.0 µM, hits give high values.
Test [6] can be described thus: NCI Yeast Anticancer Drug Screen. Data for the mlh1 rad18 strain (AID 175). As to conditions: S. cerevisiae mlh1 rad18 strain growth inhibition; at 50.0 µM; hits give high values.

`CCCCC#CCN(CCCl)CCCl`: the growth inhibition is inactive: 33.1% in test [1]; inactive: 22.6% in test [2]; inactive: 15.8% in test [3]; inactive: 40% in test [4]; inactive: -6.95% in test [5]; inactive: 43.1% in test [6].
As for `Cc1ccc(N(CCBr)CCBr)cc1`, the growth inhibition in test [1] is inactive: -0.55%; in test [2], inactive: -9.2%; in test [3], inactive: 6.7%; in test [4], inactive: 11.1%; in test [5] it was inactive: -1.8%; in test [6], inactive: 13.8%.
On to `CC(C)OP(OC(C)C)OC(C)C`, for which the growth inhibition in test [1] was inactive: 25.8%; in test [2], inactive: 15.9%; in test [3], inactive: 2.95%; in test [4], inactive: 20%; in test [5], inactive: 15.1%; in test [6], inactive: 18.2%.
Regarding `S=C=Nc1ccc(N(CCCl)CCCl)cc1`, the growth inhibition in test [1] was inactive: -0.05%; in test [2], inactive: -2.1%; in test [3], inactive: -4.7%; in test [4], inactive: 30.5%; in test [5], inactive: 4.4%; in test [6] it was inactive: 6.5%.
`Cc1ccc(NC2(C(N)=O)CCNCC2)cc1`: the growth inhibition in test [1] was inactive: 15%; in test [2], inactive: -43.2%; in test [3], inactive: 1.55%; in test [4], inactive: 9.35%; in test [5], inactive: -3.25%; in test [6], inactive: -1.4%.
Take `ClCCN1CCC(C2CCN(CCCl)CC2)CC1`: the growth inhibition in test [1] was inactive: -24.1%; in test [2] it was inactive: -9.35%; in test [3], inactive: -5.15%; in test [4] it was inactive: 9.7%; in test [5], inactive: -10.2%; in test [6] it was inactive: -58.3%.
On to `Nc1cc([As](I)I)ccc1O`, for which the growth inhibition was inactive: 44.6% in test [1]; inactive: 43.9% in test [2]; inactive: 21.8% in test [3]; inactive: 26.8% in test [4]; inactive: 66.1% in test [5]; inactive: 61% in test [6].
Regarding `CCCCN(CCCl)CCCC`, the growth inhibition in test [1] was inactive: 27%; in test [2], inactive: 27.8%; in test [3] it was inactive: 39.8%; in test [4], inactive: 3.15%; in test [5], inactive: 40.8%; in test [6], inactive: 35%.
`Cc1ccc(NC2(C#N)CCN(Cc3ccccc3)CC2)cc1`: the growth inhibition is inactive: -27.2% in test [1]; inactive: -22.6% in test [2]; inactive: -15.8% in test [3]; inactive: -10.6% in test [4]; inactive: 3.2% in test [5]; inactive: -22% in test [6].
Take `[C-]#N.[C-]#N.[Ca+2]`: the growth inhibition in test [1] is inactive: 12.5%; in test [2], inactive: 2.6%; in test [3], inactive: 1.1%; in test [4], inactive: 5.7%; in test [5] it was inactive: 8.9%; in test [6] it was inactive: -3.25%.
As for `Oc1c(CN(CCCl)CCCl)cc(Cl)c2cccnc12`, the growth inhibition in test [1] was active: 98.5%; in test [2] it was active: 98.7%; in test [3] it was active: 98.6%; in test [4] it was active: 97.9%; in test [5], active: 98.6%; in test [6] it was active: 98.4%.
As to `CCCOP(O)OCCC`, the growth inhibition in test [1] was inactive: 6.6%; in test [2], inactive: 2.85%; in test [3], inactive: 6.9%; in test [4], inactive: -13.3%; in test [5], inactive: 5.55%; in test [6], inactive: -26.4%.
In the case of `CCOc1ccc(N(CCCl)CCCl)cc1`, the growth inhibition in test [1] is inactive: -1.3%; in test [2], inactive: 10.2%; in test [3], inactive: -17.2%; in test [4] it was inactive: -0.8%; in test [5], inactive: 1.45%; in test [6] it was inactive: -19.4%.
In the case of `O=CCCCc1ccc(N(CCCl)CCCl)cc1`, the growth inhibition in test [1] is inactive: -1.75%; in test [2], inactive: -6.4%; in test [3], inactive: -6.5%; in test [4] it was inactive: -1.65%; in test [5], inactive: 6.8%; in test [6], inactive: 30.7%.
With `O=CC(O)C(O)C(O)C(O)CN(CCCl)CCCl` (stereo unspecified), the growth inhibition in test [1] was inactive: -15.8%; in test [2], inactive: -10.6%; in test [3], inactive: 0.65%; in test [4] it was inactive: -0.55%; in test [5] it was inactive: -8.9%; in test [6], inactive: -69%.
For `COc1ccc([N+](=O)[O-])cc1CN(CCBr)CCBr`, the growth inhibition in test [1] was inactive: 6.85%; in test [2], inactive: 4.1%; in test [3], inactive: 7.2%; in test [4], inactive: -36%; in test [5], inactive: 1.2%; in test [6], inactive: 22.4%.
For `CN(C)c1ccc(N(CCCl)CCCl)cc1`, the growth inhibition in test [1] is inactive: 23.1%; in test [2], inactive: 3.25%; in test [3], inactive: 7.1%; in test [4], inactive: 33.7%; in test [5], inactive: 25.9%; in test [6], inactive: -18.5%.
`O=C(O)CCOc1ccccc1N(CCCl)CCCl`: the growth inhibition in test [1] was inactive: -18.4%; in test [2] it was inactive: -7.15%; in test [3], inactive: -21.9%; in test [4], inactive: 7.05%; in test [5] it was inactive: 18.1%; in test [6], inactive: -10.8%.
Turning to `O=C1NC(=NC2CCCCC2)C2(CCN(CCc3ccccc3)CC2)N1c1ccccc1`, the growth inhibition was inactive: 9.4% in test [1]; inactive: -4.5% in test [2]; inactive: 18.1% in test [3]; inactive: 11.4% in test [4]; inactive: 14.4% in test [5]; inactive: -16.9% in test [6].
Regarding `ClCCN(CCCl)C1Cc2ccccc2C1`, the growth inhibition in test [1] was inactive: 11.1%; in test [2], inactive: 10.9%; in test [3], inactive: -17.2%; in test [4] it was inactive: -0.55%; in test [5], inactive: -20.2%; in test [6] it was inactive: 5.1%.
With `O=C(CN(CCCl)CCCl)Nc1cccc(F)c1`, the growth inhibition in test [1] is inactive: 11.7%; in test [2] it was inactive: 6.45%; in test [3], inactive: 0.55%; in test [4], inactive: 9.85%; in test [5], inactive: 16.8%; in test [6], inactive: 2.2%.
On to `ClCCN1[C@@H](CCl)CC[C@@H]1c1ccccc1`, for which the growth inhibition in test [1] was inactive: 41.6%; in test [2], inactive: 18.1%; in test [3], inactive: 1.7%; in test [4], inactive: -7.75%; in test [5] it was inactive: -43.5%; in test [6], inactive: -10.5%.
As to `CC1(C)OCC(COP(N)(=O)N(CCCl)CCCl)O1` (stereo unspecified), the growth inhibition in test [1] is active: 95.7%; in test [2], active: 87.7%; in test [3], active: 94.5%; in test [4], active: 83.2%; in test [5], active: 85.7%; in test [6], active: 90.6%.
Consider `N#Cc1ccc(C(=O)CBr)cc1`, for which the growth inhibition in test [1] is inactive: 18.2%; in test [2] it was inactive: 31.4%; in test [3], inactive: -3.35%; in test [4] it was inactive: 2.15%; in test [5] it was inactive: -3.15%; in test [6], inactive: 16.8%.
As to `Cc1ccc(S(=O)(=O)CN(CCBr)CCBr)cc1`, the growth inhibition in test [1] is active: 81%; in test [2] it was active: 76.2%; in test [3] it was active: 88.8%; in test [4], active: 82.7%; in test [5], active: 86.2%; in test [6], active: 92%.
As for `ClCCN(CCCl)c1ccccc1`, the growth inhibition was inactive: 17.1% in test [1]; inactive: -2.1% in test [2]; inactive: 7.9% in test [3]; inactive: -8.1% in test [4]; inactive: 6.1% in test [5]; inactive: 9.7% in test [6].
Regarding `CN(CCCl)CC(Cl)c1cccc(C(F)(F)F)c1` (stereo unspecified), the growth inhibition in test [1] is inactive: -20%; in test [2], inactive: 0.75%; in test [3] it was inactive: 9.5%; in test [4], inactive: -26.2%; in test [5], inactive: -3.05%; in test [6], inactive: 12.1%.
Regarding `C1CCC(NC2CCCCC2)CC1.O=C(O)C(O)c1ccc(N(CCCl)CCCl)cc1` (stereo unspecified), the growth inhibition is inactive: 1.4% in test [1]; inactive: 6.15% in test [2]; inactive: 19.8% in test [3]; inactive: 2.95% in test [4]; inactive: 5.6% in test [5]; inactive: 37.9% in test [6].
As to `CC(C)NP(=O)(F)NC(C)C`, the growth inhibition in test [1] is inactive: -6.9%; in test [2], inactive: 0.8%; in test [3], inactive: -15.7%; in test [4] it was inactive: 39%; in test [5] it was inactive: -14%; in test [6], inactive: -5.85%.
Take `O=[N+]([O-])c1ncc(N(CCCl)CCCl)s1`: the growth inhibition in test [1] was inactive: 28.2%; in test [2], inactive: -2.4%; in test [3] it was inactive: 34.1%; in test [4], inactive: 1.8%; in test [5] it was inactive: -15%; in test [6], inactive: -5.95%.
Consider `CCC1C(OC(=O)CC(O)(c2ccccc2)c2ccccc2)C2CCN1CC2` (stereo unspecified), for which the growth inhibition is inactive: 17.1% in test [1]; inactive: 5.35% in test [2]; inactive: 3.5% in test [3]; inactive: -3.7% in test [4]; inactive: 4.05% in test [5]; inactive: 16.9% in test [6].
